The values below come from the Kinase Knowledgebase extract (Sharma et al. 2016).

Chains of the proteins cited; added tags and fusions are not shown. Lines headed by an entry give the natural chain unless they say otherwise; changes in a name come on top.
UniProt O00329: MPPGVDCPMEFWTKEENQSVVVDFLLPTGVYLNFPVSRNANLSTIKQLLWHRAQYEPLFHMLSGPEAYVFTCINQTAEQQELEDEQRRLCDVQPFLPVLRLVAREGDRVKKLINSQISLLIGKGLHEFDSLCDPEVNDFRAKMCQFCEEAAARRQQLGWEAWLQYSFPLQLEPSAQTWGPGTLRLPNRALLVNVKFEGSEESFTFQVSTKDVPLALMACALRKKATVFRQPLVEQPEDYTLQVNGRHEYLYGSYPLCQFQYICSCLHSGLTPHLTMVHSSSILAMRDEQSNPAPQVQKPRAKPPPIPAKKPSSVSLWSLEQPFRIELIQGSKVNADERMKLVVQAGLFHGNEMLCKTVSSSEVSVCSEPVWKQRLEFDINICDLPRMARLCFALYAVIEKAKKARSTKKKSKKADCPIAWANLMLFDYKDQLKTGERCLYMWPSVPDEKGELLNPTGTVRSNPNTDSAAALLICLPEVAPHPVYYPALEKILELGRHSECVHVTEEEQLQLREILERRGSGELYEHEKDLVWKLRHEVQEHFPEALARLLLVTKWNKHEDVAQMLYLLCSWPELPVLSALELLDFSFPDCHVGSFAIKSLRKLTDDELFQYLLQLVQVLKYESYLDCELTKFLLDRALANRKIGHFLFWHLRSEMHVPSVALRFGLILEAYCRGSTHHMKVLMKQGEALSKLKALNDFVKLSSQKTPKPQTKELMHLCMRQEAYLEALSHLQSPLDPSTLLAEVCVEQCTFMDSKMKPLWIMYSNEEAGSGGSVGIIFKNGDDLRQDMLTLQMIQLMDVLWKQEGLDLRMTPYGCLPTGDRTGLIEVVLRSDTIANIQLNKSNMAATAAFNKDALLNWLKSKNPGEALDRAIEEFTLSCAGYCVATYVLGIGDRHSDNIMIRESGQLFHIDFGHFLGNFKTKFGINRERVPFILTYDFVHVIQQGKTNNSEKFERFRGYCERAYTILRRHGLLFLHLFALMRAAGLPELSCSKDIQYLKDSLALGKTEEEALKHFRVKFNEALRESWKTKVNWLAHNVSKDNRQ
UniProt P42338: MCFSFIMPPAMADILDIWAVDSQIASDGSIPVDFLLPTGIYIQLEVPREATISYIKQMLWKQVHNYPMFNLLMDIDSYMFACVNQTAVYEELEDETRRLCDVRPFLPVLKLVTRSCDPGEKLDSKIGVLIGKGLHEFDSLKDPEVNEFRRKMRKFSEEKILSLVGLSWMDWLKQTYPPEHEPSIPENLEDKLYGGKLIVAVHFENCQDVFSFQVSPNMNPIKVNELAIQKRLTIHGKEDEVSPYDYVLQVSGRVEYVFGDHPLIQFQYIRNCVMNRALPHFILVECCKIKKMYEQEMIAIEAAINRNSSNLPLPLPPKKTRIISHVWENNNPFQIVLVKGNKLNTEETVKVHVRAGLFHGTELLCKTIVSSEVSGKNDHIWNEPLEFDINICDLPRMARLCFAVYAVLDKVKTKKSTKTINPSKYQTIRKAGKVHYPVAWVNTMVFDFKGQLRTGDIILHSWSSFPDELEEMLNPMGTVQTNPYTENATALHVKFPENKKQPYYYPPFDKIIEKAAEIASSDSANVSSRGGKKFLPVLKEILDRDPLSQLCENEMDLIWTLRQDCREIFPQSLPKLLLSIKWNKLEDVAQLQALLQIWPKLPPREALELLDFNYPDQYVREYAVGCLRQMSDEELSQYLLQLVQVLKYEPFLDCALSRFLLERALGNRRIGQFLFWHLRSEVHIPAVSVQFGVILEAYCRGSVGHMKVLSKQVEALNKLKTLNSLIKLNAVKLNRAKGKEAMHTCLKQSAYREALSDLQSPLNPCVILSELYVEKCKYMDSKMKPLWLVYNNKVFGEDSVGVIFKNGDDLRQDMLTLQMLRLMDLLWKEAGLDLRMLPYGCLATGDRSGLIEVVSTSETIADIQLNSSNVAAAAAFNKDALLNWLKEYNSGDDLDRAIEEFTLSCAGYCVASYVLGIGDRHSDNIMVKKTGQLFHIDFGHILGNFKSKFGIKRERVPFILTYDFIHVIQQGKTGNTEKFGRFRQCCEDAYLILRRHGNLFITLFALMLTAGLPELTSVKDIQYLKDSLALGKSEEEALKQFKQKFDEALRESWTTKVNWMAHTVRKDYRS

Test [1] deals with PIK3CD (Human) (UniProt O00329). The test is described as follows: Enzyme Assay.
Test [2] deals with PIK3CB (Human) (UniProt P42338). The test can be described thus: Enzyme Assay.

For orientation: IC50 means the concentration that gives 50% inhibition. Higher therefore signals weaker potency in that assay.

On to `C[C@H](NC(=O)c1c(N)nn2cccnc12)c1cc2cccc(C#Cc3cn(C)cn3)c2c(=O)n1-c1ccccc1`, for which the IC50 in test [1] and in test [2] was 1 to 5 µM throughout.

The compound `C[C@H](NC(=O)c1c(N)nn2cccnc12)c1cc2cccc(C#Cc3ccc(=O)[nH]c3)c2c(=O)n1-c1ccccc1` returned an IC50 in test [2] of 5 to 10 µM.
